Assay results reported in publication PMC5451150 (Journal of Medicinal Chemistry, 2016).

Biological target: T1, NSD2 (Homo sapiens, UniProt O96028)
T1 sequence (O96028 1-1365): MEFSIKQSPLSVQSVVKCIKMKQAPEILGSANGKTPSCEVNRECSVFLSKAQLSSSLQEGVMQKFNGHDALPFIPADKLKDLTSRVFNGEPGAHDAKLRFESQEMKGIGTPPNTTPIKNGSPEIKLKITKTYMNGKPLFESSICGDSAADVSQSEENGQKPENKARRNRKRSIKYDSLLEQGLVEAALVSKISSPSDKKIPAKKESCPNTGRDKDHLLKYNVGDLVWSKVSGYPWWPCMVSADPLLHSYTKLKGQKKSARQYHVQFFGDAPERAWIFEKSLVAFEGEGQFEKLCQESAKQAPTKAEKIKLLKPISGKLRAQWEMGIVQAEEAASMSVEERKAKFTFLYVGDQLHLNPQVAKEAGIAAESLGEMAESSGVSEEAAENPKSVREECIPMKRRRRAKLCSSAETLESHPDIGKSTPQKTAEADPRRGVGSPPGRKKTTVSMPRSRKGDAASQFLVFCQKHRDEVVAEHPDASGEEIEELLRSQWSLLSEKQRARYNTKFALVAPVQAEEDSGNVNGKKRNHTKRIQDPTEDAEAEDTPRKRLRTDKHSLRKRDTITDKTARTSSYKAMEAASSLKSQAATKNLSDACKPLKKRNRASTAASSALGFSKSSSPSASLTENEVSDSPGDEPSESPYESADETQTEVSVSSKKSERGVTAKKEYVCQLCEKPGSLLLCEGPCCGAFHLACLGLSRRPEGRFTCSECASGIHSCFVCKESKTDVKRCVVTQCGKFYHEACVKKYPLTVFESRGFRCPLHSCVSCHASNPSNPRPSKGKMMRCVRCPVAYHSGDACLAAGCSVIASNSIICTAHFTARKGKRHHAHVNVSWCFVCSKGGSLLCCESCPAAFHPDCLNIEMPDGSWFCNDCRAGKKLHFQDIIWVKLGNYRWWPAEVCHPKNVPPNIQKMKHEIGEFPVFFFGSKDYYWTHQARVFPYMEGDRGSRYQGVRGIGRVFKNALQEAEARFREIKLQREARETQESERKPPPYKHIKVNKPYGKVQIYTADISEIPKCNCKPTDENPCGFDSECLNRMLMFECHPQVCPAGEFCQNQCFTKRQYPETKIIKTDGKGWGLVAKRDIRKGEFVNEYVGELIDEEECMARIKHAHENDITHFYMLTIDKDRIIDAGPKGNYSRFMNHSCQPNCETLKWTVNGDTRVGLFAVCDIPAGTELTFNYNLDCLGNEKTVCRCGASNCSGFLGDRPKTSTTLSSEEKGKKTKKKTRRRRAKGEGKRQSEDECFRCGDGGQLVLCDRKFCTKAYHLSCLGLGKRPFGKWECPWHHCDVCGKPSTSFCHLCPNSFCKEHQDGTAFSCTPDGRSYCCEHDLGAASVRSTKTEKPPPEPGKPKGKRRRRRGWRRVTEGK
Experiment: Methyltransferase selectivity panel: NSD2
Assay type: biochemical
Settings: substrate Nucleosomes; top concentration 10 µM

## Nc1ncnc2c1ncn2[C@@H]1O[C@H](CSCC[C@H](N)C(=O)O)[C@@H](O)[C@H]1O [SAH, reference compound]
  IC50: 9.88 µM
